According to patent US10961242B2, “Compounds as autotaxin inhibitors and pharmaceutical compositions comprising the same” (LegoChem Biosciences, Inc., priority 2018, dated 2021):

Molecular target: human ENPP2 (Homo sapiens (Human), UniProt Q13822)
Test: Inhibitory activity on human ENPP2 (FS-3 assay)
Conditions: human ENPP2, FS-3 substrate, 30 min at 37° C.

1-(1H-1,2,3-benzotrizol-5-yl)-3-methyl-8[2-({[3-(trifluoromethoxy)phenyl]methyl}amino)pyrimidine-5-carbonyl]-1,3,8-triazaspiro[4,5]-decane-2,4-dione
IC50: 9 nM

Some compounds may have been tested in ways that are not shown here.
